By UniProt entry, the sequences of proteins in these tests, tags left out.
UniProt P25103, whole entry: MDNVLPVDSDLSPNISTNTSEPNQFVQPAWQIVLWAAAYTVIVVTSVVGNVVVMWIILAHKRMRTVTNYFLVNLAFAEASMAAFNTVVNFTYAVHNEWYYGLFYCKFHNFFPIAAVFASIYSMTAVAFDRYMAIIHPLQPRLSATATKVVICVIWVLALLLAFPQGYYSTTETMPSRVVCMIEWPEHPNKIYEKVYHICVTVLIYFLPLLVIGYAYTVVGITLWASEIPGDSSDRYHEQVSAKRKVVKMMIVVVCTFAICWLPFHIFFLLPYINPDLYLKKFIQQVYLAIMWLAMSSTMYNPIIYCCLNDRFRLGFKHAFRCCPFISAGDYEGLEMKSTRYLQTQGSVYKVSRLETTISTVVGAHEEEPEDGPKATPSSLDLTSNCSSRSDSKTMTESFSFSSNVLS

In patent publication US5328927A, “Hetercyclic compounds, processes for their preparation and pharmaceutical compositions containing them” (Merck Sharpe & Dohme, Ltd., priority 1992, dated 1994):

biological target: human neurokinin-1-receptor (NK1R) (Homo sapiens, UniProt P25103); experiment: biochemical; details: 125I-SP binding; cloned human NK1R expressed in COS or CHO; 1 hour at 4° C. or room temperature

Going from CC(=O)NC(Cc1c[nH]c2ccccc12)C(=O)C=Cc1cc(C(F)(F)F)cc(C(F)(F)F)c1 (stereo not shown) [Example 7, 2-Acetamido-5-(3,5-bistrifluoromethylphenyl)-1-(3-indolyl)-4-penten-3-one] to CC(=O)NC(Cc1c[nH]c2ccccc12)C(=O)CCc1cc(C(F)(F)F)cc(C(F)(F)F)c1 (stereo not shown) [Example 8, 2-Acetamido-5-(3,5-bistrifluoromethylphenyl)-1-(3-indolyl)-3-pentanone], the pIC50 rises from 6.70 to 8.52 (1.82 log units).

Going from CN(C)CC(=O)NC(Cc1c[nH]c2ccccc12)C(=O)CCc1cc(C(F)(F)F)cc(C(F)(F)F)c1 (stereo not shown) [Example 12, 5-(3,5-Bistrifluoromethylphenyl)-2-(N,N-dimethylglycinamido)-1-(3-indolyl)-3-pentanone Hydrochloride] to CN(C)CCC(=O)NC(Cc1c[nH]c2ccccc12)C(=O)CCc1cc(C(F)(F)F)cc(C(F)(F)F)c1 (stereo not shown) [Example 16, 5-(3,5-Bistrifluoromethylphenyl)-2-(3-N,N-dimethylaminopropionamide)-1-(3-indolyl)-3-pentanone Hydrochloride], the pIC50 rises from 8.00 to 8.70 (0.70 log units). The second is the more potent here.

pIC50: −log10 of the molar value. Where a name gives a salt, the structure may show the parent alone.
